Measurements taken from PubChem BioAssay (NCI).
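Results reflect a 48-hour exposure of cells in 96-well plates to compound at five concentrations. GI50 is the concentration that inhibits growth by half. Definition used: TGI = concentration required for complete inhibition of growth.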

Legend:
Assay in all cases: growth of human tumour cells (NCI), 48 h
[1] = test system: 786-0 renal
[2] = test system: A498 renal
[3] = test system: A549 NSCLC
[4] = test system: ACHN renal
[5] = test system: BT-549 breast
[6] = test system: CAKI-1 renal
[7] = test system: CCRF-CEM leukemia
[8] = test system: COLO 205 colon
[9] = test system: DU-145 prostate
[10] = test system: EKVX NSCLC
[11] = test system: HCC-2998 colon
[12] = test system: HCT-116 colon
[13] = test system: HCT-15 colon
[14] = test system: HL-60(TB) leukemia
[15] = test system: HOP-62 NSCLC
[16] = test system: HOP-92 NSCLC
[17] = test system: HS 578T breast
[18] = test system: HT29 colon
[19] = test system: IGROV1 ovarian
[20] = test system: K-562 leukemia
[21] = test system: KM12 colon
[22] = test system: LOX IMVI melanoma
[23] = test system: M14 melanoma
[24] = test system: MALME-3M melanoma
[25] = test system: MCF7 breast
[26] = test system: MDA-MB-231 breast
[27] = test system: MDA-MB-435
[28] = test system: MDA-N
[29] = test system: MOLT-4 leukemia
[30] = test system: NCI-H23 lung
[31] = test system: NCI-H322M lung
[32] = test system: NCI-H460 lung
[33] = test system: NCI-H522 lung
[34] = test system: NCI/ADR-RES ovarian
[35] = test system: OVCAR-3 ovarian
[36] = test system: OVCAR-4 ovarian
[37] = test system: OVCAR-5 ovarian
[38] = test system: OVCAR-8 ovarian
[39] = test system: PC-3 prostate
[40] = test system: RPMI-8226 leukemia
[41] = test system: RXF 393 renal
[42] = test system: SF-268 CNS
[43] = test system: SF-295 CNS
[44] = test system: SF-539 CNS
[45] = test system: SK-MEL-2 melanoma
[46] = test system: SK-MEL-28 melanoma
[47] = test system: SK-MEL-5 melanoma
[48] = test system: SK-OV-3 ovarian
[49] = test system: SN12C renal
[50] = test system: SNB-19 CNS
[51] = test system: SW-620 colon
[52] = test system: T-47D breast
[53] = test system: TK-10 renal
[54] = test system: U251 CNS
[55] = test system: UACC-257 melanoma
[56] = test system: UACC-62 melanoma
[57] = test system: UO-31 renal
[58] = test system: SNB-75 CNS
[59] = test system: SR leukemia

With `CN1C(=O)N(C)P(OCCN(CCOP2N(C)C(=O)N(C)C(=O)N2C)P2(=O)NCCCO2)N(C)C1=O` (centres undefined) the TGI [1] was greater than 100 µM, the TGI [2] was greater than 100 µM and the TGI [3] was greater than 100 µM. The TGI [4] was greater than 100 µM, the TGI [5] was greater than 100 µM and the TGI [6] was greater than 100 µM. It also gave a TGI [7] greater than 100 µM, a TGI [8] greater than 100 µM and a TGI [9] greater than 100 µM. It also gave a TGI [10] greater than 100 µM, a TGI [11] greater than 100 µM and a TGI [12] greater than 100 µM. The TGI [13] was greater than 100 µM, the TGI [14] was greater than 100 µM and the TGI [15] was greater than 100 µM. For the same compound, the TGI [16] was greater than 100 µM, the TGI [17] was greater than 100 µM and the TGI [18] was greater than 100 µM. The TGI [19] was greater than 100 µM, the TGI [20] was greater than 100 µM and the TGI [21] was greater than 100 µM. It also gave a TGI [22] greater than 100 µM, a TGI [23] greater than 100 µM and a TGI [24] greater than 100 µM. For the same compound, the TGI [25] was greater than 100 µM, the TGI [26] was greater than 100 µM and the TGI [27] was greater than 100 µM. For the same compound, the TGI [28] was greater than 100 µM, the TGI [29] was greater than 100 µM and the TGI [30] was greater than 100 µM. For the same compound, the TGI [31] was greater than 100 µM, the TGI [32] was greater than 100 µM and the TGI [33] was greater than 100 µM. For the same compound, the TGI [34] was greater than 100 µM, the TGI [35] was greater than 100 µM and the TGI [36] was greater than 100 µM. For the same compound, the TGI [37] was greater than 100 µM, the TGI [38] was greater than 100 µM and the TGI [39] was greater than 100 µM. For the same compound, the TGI [40] was greater than 100 µM, the TGI [41] was greater than 100 µM and the TGI [42] was greater than 100 µM. For the same compound, the TGI [43] was greater than 100 µM, the TGI [44] was greater than 100 µM and the TGI [45] was greater than 100 µM. For the same compound, the TGI [46] was greater than 100 µM, the TGI [47] was greater than 100 µM and the TGI [48] was greater than 100 µM. For the same compound, the TGI [49] was greater than 100 µM, the TGI [50] was greater than 100 µM and the TGI [51] was greater than 100 µM. It also gave a TGI [52] greater than 100 µM, a TGI [53] greater than 100 µM and a TGI [54] greater than 100 µM. It also gave a TGI [55] greater than 100 µM, a TGI [56] greater than 100 µM and a TGI [57] of 0.0554 µM.

In the case of `Cc1ccc(Sc2ccc([N+](=O)[O-])cc2[N+](=O)[O-])c([N+](=O)[O-])c1`, the GI50 [1] is reported as 4.38 µM, the TGI [1] is reported as 18.1 µM and the GI50 [2] is reported as 1.96 µM. It also gave a TGI [2] of 11.3 µM, a GI50 [3] of 3.6 µM and a TGI [3] of 25.4 µM. For the same compound, the GI50 [4] was 2.71 µM, the TGI [4] was 12.4 µM and the GI50 [5] was 1.99 µM. The TGI [5] was 12.2 µM, the GI50 [6] was 3.82 µM and the TGI [6] was 66.9 µM. It also gave a GI50 [8] of 2.2 µM, a TGI [8] of 4.29 µM and a GI50 [9] of 3.18 µM. For the same compound, the TGI [9] was 11 µM, the GI50 [10] was 14.2 µM and the TGI [10] was 34.6 µM. The GI50 [11] was 2.28 µM, the TGI [11] was 5.82 µM and the GI50 [12] was 0.351 µM. For the same compound, the TGI [12] was 15.9 µM, the GI50 [13] was 2.3 µM and the TGI [13] was 23 µM. The GI50 [14] was 0.281 µM, the TGI [14] was 0.726 µM and the GI50 [15] was 2.69 µM. For the same compound, the TGI [15] was 9.32 µM, the GI50 [16] was 3.84 µM and the TGI [16] was 28.6 µM. For the same compound, the GI50 [17] was 6.01 µM, the TGI [17] was greater than 100 µM and the GI50 [18] was 0.625 µM. For the same compound, the TGI [18] was 17.8 µM, the GI50 [19] was 6.6 µM and the TGI [19] was 29.1 µM. For the same compound, the GI50 [20] was 0.406 µM, the TGI [20] was 19.7 µM and the GI50 [21] was 2.96 µM. The TGI [21] was 13.9 µM, the GI50 [22] was 0.377 µM and the TGI [22] was 16.2 µM. The GI50 [23] was 3.9 µM, the TGI [23] was 18.7 µM and the GI50 [24] was 13.1 µM. The TGI [24] was 32.6 µM, the GI50 [25] was 0.595 µM and the TGI [25] was 14.8 µM. The GI50 [26] was 3.5 µM, the TGI [26] was 20 µM and the GI50 [27] was 0.99 µM. The TGI [27] was 10.3 µM, the GI50 [29] was 0.55 µM and the TGI [29] was 11.4 µM. For the same compound, the GI50 [30] was 2.61 µM, the TGI [30] was 22.4 µM and the GI50 [32] was 2.88 µM. For the same compound, the TGI [32] was 8.38 µM, the GI50 [33] was 1.45 µM and the TGI [33] was 5.37 µM. It also gave a GI50 [34] of 0.57 µM, a TGI [34] of 14.3 µM and a GI50 [35] of 1.89 µM. It also gave a TGI [35] of 13.3 µM, a GI50 [36] of 0.396 µM and a TGI [36] of 14 µM. The GI50 [37] was 7.82 µM, the TGI [37] was 26.3 µM and the GI50 [38] was 2.21 µM. For the same compound, the TGI [38] was 18.1 µM, the GI50 [39] was 4.5 µM and the TGI [39] was 30 µM. The GI50 [40] was 0.765 µM, the TGI [40] was greater than 100 µM and the GI50 [41] was 2.49 µM. It also gave a TGI [41] of 13.8 µM, a GI50 [42] of 5.2 µM and a TGI [42] of 19.9 µM. The GI50 [43] was 4.32 µM, the TGI [43] was 29.8 µM and the GI50 [44] was 2 µM. It also gave a TGI [44] of 22.7 µM, a GI50 [45] of 14 µM and a TGI [45] of 41.2 µM. For the same compound, the GI50 [46] was 5.4 µM, the TGI [46] was 25.1 µM and the GI50 [47] was 2.61 µM. It also gave a TGI [47] of 10.4 µM, a GI50 [48] of 3.01 µM and a TGI [48] of 9.09 µM. The GI50 [49] was 1.19 µM, the TGI [49] was 19.4 µM and the GI50 [50] was 5.57 µM. It also gave a TGI [50] of 26.7 µM, a GI50 [58] of 3.07 µM and a TGI [58] of 22.1 µM. It also gave a GI50 [59] of 0.327 µM, a TGI [59] of 2.12 µM and a GI50 [51] of 0.382 µM. The TGI [51] was 10.4 µM, the GI50 [52] was 7.61 µM and the TGI [52] was 33 µM. It also gave a GI50 [53] of 10.4 µM, a TGI [53] of 28.6 µM and a GI50 [54] of 3.01 µM. For the same compound, the TGI [54] was 10.2 µM, the GI50 [55] was 13.9 µM and the TGI [55] was 28.8 µM. It also gave a GI50 [56] of 1.88 µM, a TGI [56] of 19.1 µM and a GI50 [57] of 3.26 µM. The TGI [57] was 19.1 µM.
